Columns and labels:
FaNaC1 F129A = FaNaC1 F129A (Malacoceros fuliginosus, UniProt A0AAN0NP85, F130A); assay: TEVC, FMRFa-gated currents, oocytes expressing mutant FaNaC1; format: cell-based
Procedure: (§1) FaNaC1 in a modified pSP64 plasmid vector (Supplementary Notes) was used for mutagenesis and messenger RNA preparation and injection into stage V/VI Xenopus laevis oocytes (EcoCyte Bioscience). Mutants were generated by partly overlapping primers (Supplementary Table 1 and ref. [75]), and channel-coding inserts were Sanger sequenced. […] NaCl was replaced with KCl, NH4Cl or H3CNH3Cl (Merck) where appropriate.
(§2) Current amplitudes were measured in Clampfit v.11 (Molecular Devices). N values refer to experiments performed on different oocytes. Data were analyzed in Prism v.9 (GraphPad) and fit with Prism v.9 variable-slope four-parameter nonlinear regression, yielding half-maximal effective activating/inhibiting concentrations (EC50/IC50). […] Mean ± standard error of the mean (s.e.m.) EC50/IC50 from fits to individual cells reported in Main. Currents shown in figures are further filtered (20 Hz) and decimated (50×) in Clampfit 11 for smaller file size.

FaNaC1 F129L = FaNaC1 F129L (Malacoceros fuliginosus, UniProt A0AAN0NP85, F130L); assay: as above; format: cell-based
Procedure: as §1, §2

FaNaC1 V122A = FaNaC1 V122A (Malacoceros fuliginosus, UniProt A0AAN0NP85, V123A); assay: as above; format: cell-based
Procedure: as §1, §2

FaNaC1 F129Q = assay: as above; format: cell-based, Malacoceros fuliginosus
Procedure: as §1, §2

FaNaC1 V122F = assay: as above; format: cell-based, Malacoceros fuliginosus
Procedure: as §1, §2

FaNaC1 V122Q = assay: as above; format: cell-based, Malacoceros fuliginosus
Procedure: as §1, §2

FaNaC1 D101A/E235A = assay: as above; format: cell-based, Malacoceros fuliginosus
Procedure: as §1, §2

FaNaC1 Q133L = assay: as above; format: cell-based, Malacoceros fuliginosus
Procedure: as §1, §2

FaNaC1 Q133N = assay: as above; format: cell-based, Malacoceros fuliginosus
Procedure: as §1, §2

FaNaC1 H297S = assay: TEVC, FMRFa- and ASSFVRIa-gated currents at H297S channels; format: cell-based, Malacoceros fuliginosus
Text: Fig. 6 FaNaC1 gating mechanism. a, Overlay of ligand-free FaNaC1 (blue) and FaNaC1/FMRFa/diminazene (orange) structures. Adjacent subunit in darker shades. b, Magnified views of boxed regions, left to right: ligand binding site; palm domain; β-turn–TM2a/TM1 interactions. Selected side chains shown as sticks and labeled. c, Illustration of one subunit (left subunit in a) moving during gating: peripheral rolling, internal stasis and β-turn moving outward to allow channel expansion. α6 helix from adjacent subunit in gray. d, Top left and bottom, example recordings from oocytes expressing mutant H297S FaNaC1 channels (scale bars, x, 30 s; y, 1 µA). Top right, mean (± s.e.m., n = 5 oocytes) responses of H297S channels to FMRFa and ASSFVRIa normalized to maximum FMRFa-gated current (I/Imax-FMRFa), compared to WT channels. […]
Oocytes were clamped at −60 mV unless otherwise indicated, and currents were measured by two-electrode voltage clamp, as previously described, using a Warner OC-725C amplifier and HEKA LIH8 + 8 interface with Patchmaster 2x90.4 software (HEKA), sampling at 500 Hz or 1 kHz and filtering at 100 Hz. Current amplitudes were measured in Clampfit v.11 (Molecular Devices). […] Data were analyzed in Prism v.9 (GraphPad) and fit with Prism v.9 variable-slope four-parameter nonlinear regression, yielding half-maximal effective activating/inhibiting concentrations (EC50/IC50). […]

FaNaC1 F129C = FaNaC1 F129C (Malacoceros fuliginosus, UniProt A0AAN0NP85, F130C); assay: TEVC, FMRFa-gated currents with and without MTSET modification of introduced cysteine; format: cell-based; settings: n = 3
Text: (§3) We had previously proposed an FMRFa-binding site ~20 Å away from this site, at the interface of adjacent subunits’ β-ball and palm domains (orange in Fig. 3a and Extended Data Fig. 7) based on amino acid sequence analysis and severe effects of mutations in this site in several FaNaCs[21]. Our high-resolution maps seem to disprove that, motivating us to experimentally compare the finger site and palm/β-ball site. To this end, we compared the effects of modification of introduced cysteine residues in both of the sites by 2-(trimethylammonium)ethyl]methanethiosulfonate (MTSET), offering a readout of steric modification of the sites in ‘real time’. […] In the palm domain, MTSET modification reduced β9-S282C currents to about half but had no effect on the β11-N475C mutant (Fig. 3a,b).
(§4) Fig. 3 Chemical modification of FMRFa binding site and intersubunit interface. a, Illustration of cysteine substitutions in FMRFa binding site and previously identified interfacial site. b, FMRFa-gated currents with and without MTSET (300 μM) and after dithiothreitol (DTT) (2 mM) in oocytes expressing indicated FaNaC1 constructs. Top, example recordings. Bottom, mean (columns) and individual (dots, n = 4 oocytes) current amplitude normalized to that in the absence of MTSET. Scale bars, x, 10 s; y, 100 nA. c,d, Top, concentration-dependent FMRFa-gated currents in oocytes expressing indicated FaNaC1 constructs. Bottom, mean (±s.e.m., n = 4 oocytes) concentration-dependent current amplitude normalized to maximum current in the absence of MTSET. Scale bars in c and d, x, 10 s; y, 50 nA. Source data
as §1
(§5) Oocytes were clamped at −60 mV unless otherwise indicated, and currents were measured by two-electrode voltage clamp, as previously described, using a Warner OC-725C amplifier and HEKA LIH8 + 8 interface with Patchmaster 2x90.4 software (HEKA), sampling at 500 Hz or 1 kHz and filtering at 100 Hz. Current amplitudes were measured in Clampfit v.11 (Molecular Devices). N values refer to experiments performed on different oocytes. Data were analyzed in Prism v.9 (GraphPad) and fit with Prism v.9 variable-slope four-parameter nonlinear regression, yielding half-maximal effective activating/inhibiting concentrations (EC50/IC50). In establishing EC50 values for activation by FMRFa, we waited 4 min between applications of increasing concentrations. As detailed in Extended Data Fig. 5a,b, this risked incomplete recovery from desensitization at high ligand concentrations, but it ensured better recordings without substantially affecting EC50. Mean ± standard error of the mean (s.e.m.) EC50/IC50 from fits to individual cells reported in Main. Currents shown in figures are further filtered (20 Hz) and decimated (50×) in Clampfit 11 for smaller file size.

FaNaC1 N475C = FaNaC1 N475C (Malacoceros fuliginosus, UniProt A0AAN0NP85, N476C); assay: as above; format: cell-based; settings: n = 3
Text: as §3, §4, §1, §5

FaNaC1 S282C = FaNaC1 S282C (Malacoceros fuliginosus, UniProt A0AAN0NP85, S283C); assay: as above; format: cell-based; settings: n = 3
Text: as §3, §4, §1, §5

FaNaC1 F97C = FaNaC1 F97C (Malacoceros fuliginosus, UniProt A0AAN0NP85, F98C); assay: as above; format: cell-based; settings: n = 3
Text: as §3, §4, §1, §5

FaNaC1 M238C = FaNaC1 M238C (Malacoceros fuliginosus, UniProt A0AAN0NP85, M239C); assay: as above; format: cell-based; settings: n = 3
Text: as §3, §4, §1, §5

FaNaC1 (WT) = molecular target: T1, FaNaC1 (WT) (Malacoceros fuliginosus, UniProt A0AAN0NP85); assay: Two-electrode voltage clamp, peptide-gated currents in Xenopus laevis oocytes expressing WT FaNaC1; format: cell-based
T1 sequence (A0AAN0NP85 1-600): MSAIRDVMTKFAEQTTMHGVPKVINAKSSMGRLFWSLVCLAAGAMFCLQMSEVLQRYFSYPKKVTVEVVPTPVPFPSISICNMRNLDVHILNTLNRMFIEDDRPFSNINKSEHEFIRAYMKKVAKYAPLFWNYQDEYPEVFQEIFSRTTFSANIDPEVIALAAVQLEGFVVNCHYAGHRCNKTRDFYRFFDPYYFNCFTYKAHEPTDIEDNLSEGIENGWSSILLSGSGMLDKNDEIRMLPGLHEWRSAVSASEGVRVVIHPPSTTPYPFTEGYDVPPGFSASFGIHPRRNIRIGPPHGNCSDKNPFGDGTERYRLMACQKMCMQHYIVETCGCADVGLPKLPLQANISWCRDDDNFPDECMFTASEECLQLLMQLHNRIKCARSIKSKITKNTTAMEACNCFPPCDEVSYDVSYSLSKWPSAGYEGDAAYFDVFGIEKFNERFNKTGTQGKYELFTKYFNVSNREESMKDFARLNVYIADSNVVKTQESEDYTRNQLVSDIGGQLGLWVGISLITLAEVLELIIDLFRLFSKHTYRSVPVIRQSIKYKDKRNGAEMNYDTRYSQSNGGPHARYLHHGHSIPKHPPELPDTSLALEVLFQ
Procedure: as §1, §2

## CSCC[C@H](NC(=O)[C@@H](N)Cc1ccccc1)C(=O)N[C@@H](CCCNC(=N)N)C(=O)N[C@@H](Cc1ccccc1)C(N)=O [FMRFa, H–Phe–Met–Arg–Phe–NH2]
FaNaC1 F129A
  EC50: 18 ± 8 µM
FaNaC1 F129A; F129A
  decrease in FMRFa potency vs WT: 10- to 20 fold
FaNaC1 F129L
  EC50: 9 ± 3 µM
FaNaC1 F129L; F129L
  decrease in FMRFa potency vs WT: 10- to 20 fold
FaNaC1 V122A
  EC50: 40 ± 10 nM
FaNaC1 V122A; V122A
  increase in FMRFa potency vs WT: 20 fold
FaNaC1 F129Q
  decrease in FMRFa potency vs WT: ~ 100 fold
FaNaC1 V122F
  effect of mutation on FMRFa potency: no effect
FaNaC1 V122Q
  effect of mutation on FMRFa potency: no effect
FaNaC1 D101A/E235A
  effect of mutation on FMRFa potency: two- to fourfold decreases in potency
FaNaC1 Q133L
  effect of mutation on FMRFa potency: two- to fourfold decreases in potency
FaNaC1 Q133N
  effect of mutation on FMRFa potency: two- to fourfold decreases in potency
FaNaC1 H297S
  potency at H297S compared to WT: increased potency compared to WT
FaNaC1 F129C; after MTSET
  EC50: > 10 µM
FaNaC1 F129C; before MTSET
  EC50: 5 ± 1 µM
FaNaC1 N475C; after MTSET
  EC50: 140 ± 70 nM
FaNaC1 N475C; before MTSET
  EC50: 230 ± 110 nM
FaNaC1 S282C; after MTSET
  EC50: 170 ± 40 nM
FaNaC1 S282C; before MTSET
  EC50: 360 ± 100 nM
FaNaC1 F97C; after MTSET
  EC50: 4000 ± 2000 nM
FaNaC1 F97C; before MTSET
  EC50: 250 ± 80 nM
FaNaC1 M238C; after MTSET
  EC50: 580 ± 290 nM
FaNaC1 M238C; before MTSET
  EC50: 140 ± 70 nM
FaNaC1 (WT)
  agonist type: Full agonist

From article PMC11026163, “Structural basis for excitatory neuropeptide signaling” (Nature Structural & Molecular Biology, 2024)
